Test results reported in US11491168B2, “Combination of Bcl-2/Bcl-xL inhibitors and chemotherapeutic agent and use thereof” (ASCENTAGE PHARMA (SUZHOU) CO., LTD., priority 2019, dated 2022).
Where “and” joins values, the source holds several entries; their conditions need not be identical. Equal values may be shown once.

Test system: subcutaneous NCI-H1975-L858R-T790M-C797S NSCLC xenograft
Assay: NCI-H1975-L858R-T790M-C797S NSCLC xenograft model
Settings: for RTV @ D22: Compound 15 100 mg/kg i.v. twice a week, Cisplatin 5 mg/kg i.v. once a week, TXT 8 mg/kg i.v. once a week; for mRECIST @ D29 / mRECIST_best: PR, SD, PD; for T/C @ D22: Table 8, printed as fraction; for RTV @ D29: doses as b332; for T/C @ D29: given as fraction; for T/C value: at day 22, text

Structure (SMILES) | RTV @ D22 | mRECIST @ D29 | mRECIST_best | T/C @ D22 | RTV @ D29 | T/C @ D29 | T/C value [%] | mRECIST @ D29 (listed as TXT) | mRECIST_best (listed as TXT)
Cc1c(S(C)(=O)=O)c(-c2cc(F)cc(N3CCN(c4ccc(NS(=O)(=O)c5ccc(N[C@H](CCN6CCC(C(=O)OCCP(=O)(O)O)CC6)CSc6ccccc6)c(S(=O)(=O)C(F)(F)F)c5)cc4)CC3)c2)c(-c2ccc(Cl)cc2)n1C(C)C [Compound 15, (R)-2-(1-(3-(4-(N-(4-(4-(3-(2-(4-chlorophenyl)-1-isopropyl-5-methyl-4-(methylsulfonyl)-1H-pyrrol-3-yl)-5-fluorophenyl)piperazin-1-yl)phenyl)sulfamoyl)-2-(trifluoromethylsulfonyl)phenylamino)-4-(phenylthio)butyl)piperidine-4-carbonyloxy)ethylphosphonic acid] | 3.4 ± 0.6 | 5/5 PD | 5/5 PD | 0.590 | 5.7 ± 1.7 | 0.630 | – | – | –
N.N.[Cl][Pt][Cl] [cisplatin] | 3.7 ± 0.9 | 5/5 PD | 1/5 SD, 4/5 PD | – | 4.6 ± 1.5 | – | 66.1 | – | –
CC(=O)O[C@@]12CO[C@@H]1C[C@H](O)[C@@]1(C)C(=O)[C@H](O)C3=C(C)[C@@H](OC(=O)[C@H](O)[C@@H](NC(=O)OC(C)(C)C)c4ccccc4)C[C@@](O)([C@@H](OC(=O)c4ccccc4)[C@H]21)C3(C)C [docetaxel] | 1.2 ± 0.3 | – | – | 0.380 | 1.1 ± 0.2 | 0.120 | 21.4 | 3/5 SD, and 2/5 PD | 1/5 PR, 2/5 SD, and 2/5 PD
